Measurements taken from patent US6485970B1, “Immunointeractive antibody” (priority 1997, dated 2002).
“Also recorded” adds a separate entry of the source.

Experiments:
BA-TABM = assay: Competitive inhibition ELISA, BA-TABM against plate bound BA-HSA; format: binding, human; conditions: competitor pre-incubated with BA-TABM
Description: (§1) FIG. 13 is a graphical representation of competitive inhibition ELISA between BA-TABM and various haptens. Purified BA-TABM was diluted and pre-mixed with various haptens. The mixture was put onto an ELISA plate coated with the hapten BA-HSA and incubated. The amount of TABM binding as determined using the mouse monoclonal anti-human TABM antibody (MG3C9-1A12). [drawing 12]
as §1, with “FIG. 14” for “FIG. 13”, “representation showing” for “representation of competitive”, “various chemicals.” for “various haptens.”, “binding was” for “binding as”, “[drawing 13]” for “[drawing 12]”
To determined the antigen specific reactivity of BA-TABM toward BA-HSA and other haptens, a competitive ELISA was used. The ELISA plate was coated with BA-HSA (250 ng/well) in carbonate buffer overnight at 4° C. The plate was washed and blocked with 1% w/v HSA in PBS for 90 minutes at 37° C. Serum from the patient with high levels of TABM to BA-HSA was used at a dilution of 1/400, in PBS. The competing antigens or haptens were serially diluted (½) in the diluted serum to give a range equivalent to 5000-312.5 ng per well. […]

serum TABM = assay: Competitive inhibition ELISA, patient serum TABM against plate bound BA-HSA (R28 detection); format: binding, human; conditions: patient serum 1/200 pre-incubated with competitor, 5000-312.5 per well

| Substance | inhibition of BA-TABM binding to plate bound BA-HSA (BA-TABM) | inhibition of serum TABM binding to BA-HSA on the well (serum TABM) |
| --- | --- | --- |
| BA-HSA: para-amino benzoic acid conjugated to human serum albumin | inhibited; also recorded: inhibition | inhibit |
| Form-HSA: Formaldehyde conjugated human serum albumin | Weaker inhibition | No inhibition |
| HSA: Human serum albumin |  | No inhibition |
